Here are results for 1 substance from patent US20100080817A1.

Assay [1] addresses HLA-DR4 molecules on HLA-DR4+ human lymphoma cells (H9 cells) (human). The experiment in a line: flow cytometry on HLA-DR4+ H9 cells, anti-HA mAb + FITC secondary; peptide at 25 nmole; no peptide 1.83%. For orientation: Flow cytometry measures light scatter and fluorescence of single cells or particles in a stream.
For assay [2] the target is unchanged. The experiment in a line: flow cytometry on HLA-DR4+ H9 cells, anti-HA mAb + FITC secondary; peptide at 50 nmole; no peptide 1.83%.
Assay [3] has the same target. The experiment in a line: flow cytometry on HLA-DR4+ H9 cells, anti-HA mAb + FITC secondary; peptide at 100 nmole; no peptide 1.83%.
Assay [4] shares this target. Put plainly: flow cytometry on HLA-DR4+ H9 cells, anti-HA mAb + FITC secondary; peptide at 10 nmole; no peptide 1.83%.
For assay [5] the target is unchanged. The experiment in a line: flow cytometry on HLA-DR4+ H9 cells, anti-HA mAb + FITC secondary; peptide at 1 nmole; no peptide 1.83%.

Turning to “HPV7 (HPV1-HA tagged peptide: HPV16 E7 (8-22) epitope-only peptide extended at the C-terminus with a two-glycine spacer and an HA tag)”, the percentage of positive gated cells was 12.2% in assay [1]; 25.6% in assay [2]; 39.5% in assay [3]; 7.42% in assay [4]; 3.88% in assay [5].
